Earlier results in patent publication US10888553B2, “Use of non-transition metal coordinated dipyridoxyl compounds to prevent and treat chemotherapy-induced PSN” (KARLSSON-TUNER INVEST AS, priority 2016, dated 2021).

Tested on: organic cation transporter 2 (OCT2)
Conditions: overexpression of OCT2; cited from earlier work

O=C(O)C(=O)O.[NH-][C@@H]1CCCC[C@H]1[NH-].[Pt+2] [oxaliplatin]
increase in neuronal uptake of oxaliplatin: up to 35 fold
